Source: patent US20090325202A1, “Methods for Developing and Assessing Therapeutic Agents” (priority 2006, published 2009)

System: EGFR
Experiment: In vivo tumor FNAB Western blot, EGFR phosphorylation (Example 5)
Conditions: tumor samples of treated animals compared to control

COc1cc2ncnc(Nc3ccc(F)c(Cl)c3)c2cc1OCCCN1CCOCC1 [gefitinib, Gefitinib]
EGFR phosphorylation in vivo: completely abolished
